This note sets out measurements from PubChem BioAssay AID1645855 (Buhrlage Lab, Dana-Farber Cancer Institute and Novartis …, 2021).

Chains of the proteins cited; added tags and fusions are not shown.
UniProt A8MUK1, whole entry: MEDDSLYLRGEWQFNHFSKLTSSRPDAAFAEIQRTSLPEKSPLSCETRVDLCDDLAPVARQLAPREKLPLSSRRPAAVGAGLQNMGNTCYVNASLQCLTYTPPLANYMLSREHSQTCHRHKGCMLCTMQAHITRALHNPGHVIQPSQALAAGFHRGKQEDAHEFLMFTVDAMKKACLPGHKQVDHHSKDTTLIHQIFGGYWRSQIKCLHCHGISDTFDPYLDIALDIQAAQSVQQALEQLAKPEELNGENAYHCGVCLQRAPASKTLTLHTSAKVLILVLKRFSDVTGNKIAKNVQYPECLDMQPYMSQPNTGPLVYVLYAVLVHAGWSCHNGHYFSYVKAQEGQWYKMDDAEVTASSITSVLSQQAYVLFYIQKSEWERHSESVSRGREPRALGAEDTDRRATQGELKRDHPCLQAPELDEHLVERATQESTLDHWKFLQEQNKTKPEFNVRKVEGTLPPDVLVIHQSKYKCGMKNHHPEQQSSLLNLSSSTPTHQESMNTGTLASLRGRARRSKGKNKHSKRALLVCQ

The term inhibition denotes the drop in the measured response relative to a control, in per cent.

The list shows a part of the results, in another mix than the full data. Some of these compounds have results that are not shown, active ones among them. Activity calls are given as the source filed them. No stated cut-off is given here; in the data, active means inhibition above about 30%; inactive means the rest.

The target in the assay is Ubiquitin carboxyl-terminal hydrolase 17-like protein 5 (Homo sapiens) (UniProt A8MUK1). The assay is described as follows: inhibitors of human USP17 deubiquitinase (AID 1645855). Conditions: purified USP17, Ub-rhodamine cleavage fluorescence, 3 h; at 50 µM; active compounds read high.
Turning to `COc1ccc(C(=O)NCC2(N3CCOCC3)CCCCC2)cc1`, the inhibition is inactive: -7.41%.
For `O=C(NCC1(N2CCCCC2)CCCCC1)c1ccc2c(c1)OCCO2`, the inhibition was inactive: 4.2%.
The same measure for `Cc1c(C(=O)NCC2(N(C)C)CCCCC2)oc2ccc(F)cc12`: inactive: 1.69%; for `COc1cccc(C(=O)NCC2(N3CCCCC3)CCCCC2)c1`: inactive: -35.4%.
As to `Cc1c(C(=O)NCC2(N(C)C)CCCCC2)oc2ccccc12`, the inhibition was inactive: -15.8%.
`O=C(NCC1(N2CCCCC2)CCCCC1)c1ccc2ccccc2c1`: the inhibition was inactive: -9.05%.
Consider `O=C(NCC1(N2CCOCC2)CCCCC1)c1ccccc1F`, for which the inhibition was inactive: -0.897%.
